Consider two compounds from PubChem BioAssay AID1189 (EPA DSSTox, 2008).

Activity calls are given as the source filed them.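 Rule for the calls: active = a tumor-causing dose value with its tumor site reported for any sex and species group of a rodent or other animal cancer study; inconclusive = only studies judged inadequate by the national testing program; inactive = tested in at least one study, none positive.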 Entries that show only a call come without a potency.

The data set in a line: DSSTox (CPDBAS) Carcinogenic Potency Database Summary SingleCellCall Results. To be noted: animal chronic carcinogenicity bioassays, CPDB summary call. The source says: The Carcinogenic Potency Database (CPDB) is a unique and widely used international resource of the results of over 6500 chronic, long-term animal cancer tests on over 1500 chemical substances. The CPDB provides easy access to the bioassay literature, with qualitative and quantitative analyses of both positive and negative experiments that have been published over the past 50 years in the general literature and by the National Cancer Institute/National Toxicology Program. The CPDB standardizes the diverse literature of cancer bioassays that vary widely in protocol, histopathological examination and nomenclature, and in the published author's choices of what information to provide in their papers. Results are reported in the CPDB for tests in rats, mice, hamsters, dogs, and nonhuman primates, and are based on the most positive result among all experiments for each sex-species. The DSSTox CPDBAS (all species) file incorporates data from the CPDB Summary Tables for the full list of over 1500 chemical substances tested in at least one species. A summary SingleCellCall, based on experimental bioassay results of one or more species, is provided for the entire DSSTox CPDBAS file (see Source URL).
An assignment of categorical carcinogenic activity based on minimal evidence for or against activity. […]

Regarding `CN(CCCl)CCCl`, the outcome was active.
Then `O=[N+]([O-])C(Cl)(Cl)Cl`, with “inactive”.
